Measurements as given in patent publication EP4786451A1, “COMPOUND TARGETING INTEGRIN AND USE THEREOF IN RNAI AGENT” (YUN HO BIO CO., LTD, priority 2023, dated 2025).

Protein sequences, listed by entry. Tags and fused reporters are not part of them. Residues count along the entry.
UniProt P06756, 31-992 limits assumed: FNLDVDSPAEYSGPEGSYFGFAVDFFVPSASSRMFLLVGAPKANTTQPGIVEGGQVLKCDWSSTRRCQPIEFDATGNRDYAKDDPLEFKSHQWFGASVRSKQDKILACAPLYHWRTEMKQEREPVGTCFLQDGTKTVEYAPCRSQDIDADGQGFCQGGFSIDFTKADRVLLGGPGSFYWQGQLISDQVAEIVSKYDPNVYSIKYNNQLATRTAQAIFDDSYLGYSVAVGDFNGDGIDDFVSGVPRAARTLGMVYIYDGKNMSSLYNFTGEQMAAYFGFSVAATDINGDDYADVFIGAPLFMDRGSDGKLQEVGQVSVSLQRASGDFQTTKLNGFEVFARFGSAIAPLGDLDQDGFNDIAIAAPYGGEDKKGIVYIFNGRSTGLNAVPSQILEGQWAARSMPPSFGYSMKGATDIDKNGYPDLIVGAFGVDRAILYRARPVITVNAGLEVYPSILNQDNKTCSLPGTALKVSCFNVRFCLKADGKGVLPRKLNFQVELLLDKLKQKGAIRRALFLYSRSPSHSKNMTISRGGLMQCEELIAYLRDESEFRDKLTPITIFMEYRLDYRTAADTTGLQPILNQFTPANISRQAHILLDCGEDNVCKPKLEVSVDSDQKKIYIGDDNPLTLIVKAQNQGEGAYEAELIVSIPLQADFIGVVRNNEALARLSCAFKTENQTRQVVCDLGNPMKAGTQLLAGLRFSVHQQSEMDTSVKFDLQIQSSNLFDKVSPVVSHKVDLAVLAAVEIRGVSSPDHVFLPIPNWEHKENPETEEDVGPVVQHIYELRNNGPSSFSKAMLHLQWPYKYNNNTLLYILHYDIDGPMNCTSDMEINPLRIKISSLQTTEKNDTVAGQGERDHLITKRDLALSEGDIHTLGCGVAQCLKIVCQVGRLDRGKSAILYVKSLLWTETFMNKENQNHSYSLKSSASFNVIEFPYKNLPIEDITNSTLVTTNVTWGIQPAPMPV
UniProt P18084, 24-719 limits assumed: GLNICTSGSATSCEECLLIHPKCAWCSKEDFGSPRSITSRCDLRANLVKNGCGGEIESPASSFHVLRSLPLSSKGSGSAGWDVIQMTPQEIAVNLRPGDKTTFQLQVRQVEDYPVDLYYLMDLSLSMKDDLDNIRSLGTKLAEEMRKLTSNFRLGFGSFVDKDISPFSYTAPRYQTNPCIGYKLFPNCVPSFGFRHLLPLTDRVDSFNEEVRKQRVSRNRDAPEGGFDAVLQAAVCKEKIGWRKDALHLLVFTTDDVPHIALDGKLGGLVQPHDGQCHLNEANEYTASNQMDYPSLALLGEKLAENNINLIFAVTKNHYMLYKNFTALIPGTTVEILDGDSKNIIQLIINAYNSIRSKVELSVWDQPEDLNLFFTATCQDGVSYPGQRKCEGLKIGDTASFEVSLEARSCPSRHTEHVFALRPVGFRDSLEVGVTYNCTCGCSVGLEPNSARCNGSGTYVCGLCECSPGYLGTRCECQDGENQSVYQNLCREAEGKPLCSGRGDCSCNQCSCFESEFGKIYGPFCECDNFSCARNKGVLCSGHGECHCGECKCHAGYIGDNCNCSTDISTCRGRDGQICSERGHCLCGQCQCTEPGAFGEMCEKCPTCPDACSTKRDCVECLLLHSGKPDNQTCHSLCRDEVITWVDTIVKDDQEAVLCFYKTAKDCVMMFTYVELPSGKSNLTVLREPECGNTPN
UniProt P18564, 22-707 limits assumed: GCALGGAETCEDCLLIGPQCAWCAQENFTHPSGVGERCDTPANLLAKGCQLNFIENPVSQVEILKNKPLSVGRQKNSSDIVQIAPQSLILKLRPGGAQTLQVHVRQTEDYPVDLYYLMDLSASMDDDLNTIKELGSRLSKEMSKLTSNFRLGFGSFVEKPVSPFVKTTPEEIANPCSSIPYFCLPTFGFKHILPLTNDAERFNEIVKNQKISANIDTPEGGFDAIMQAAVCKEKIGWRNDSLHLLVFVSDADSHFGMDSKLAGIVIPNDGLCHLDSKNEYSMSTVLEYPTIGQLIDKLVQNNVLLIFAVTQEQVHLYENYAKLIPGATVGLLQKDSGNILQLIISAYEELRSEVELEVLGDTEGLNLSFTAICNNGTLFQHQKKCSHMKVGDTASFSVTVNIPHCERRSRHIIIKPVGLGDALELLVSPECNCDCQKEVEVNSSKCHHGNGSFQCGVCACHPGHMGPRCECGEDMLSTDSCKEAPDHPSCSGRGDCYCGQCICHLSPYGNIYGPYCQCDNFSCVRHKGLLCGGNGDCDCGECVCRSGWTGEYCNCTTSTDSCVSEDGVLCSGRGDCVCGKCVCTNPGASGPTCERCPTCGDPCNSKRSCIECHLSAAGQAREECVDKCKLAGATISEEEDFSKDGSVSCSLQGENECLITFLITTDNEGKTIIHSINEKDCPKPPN
UniProt P05556, 21-728 limits assumed: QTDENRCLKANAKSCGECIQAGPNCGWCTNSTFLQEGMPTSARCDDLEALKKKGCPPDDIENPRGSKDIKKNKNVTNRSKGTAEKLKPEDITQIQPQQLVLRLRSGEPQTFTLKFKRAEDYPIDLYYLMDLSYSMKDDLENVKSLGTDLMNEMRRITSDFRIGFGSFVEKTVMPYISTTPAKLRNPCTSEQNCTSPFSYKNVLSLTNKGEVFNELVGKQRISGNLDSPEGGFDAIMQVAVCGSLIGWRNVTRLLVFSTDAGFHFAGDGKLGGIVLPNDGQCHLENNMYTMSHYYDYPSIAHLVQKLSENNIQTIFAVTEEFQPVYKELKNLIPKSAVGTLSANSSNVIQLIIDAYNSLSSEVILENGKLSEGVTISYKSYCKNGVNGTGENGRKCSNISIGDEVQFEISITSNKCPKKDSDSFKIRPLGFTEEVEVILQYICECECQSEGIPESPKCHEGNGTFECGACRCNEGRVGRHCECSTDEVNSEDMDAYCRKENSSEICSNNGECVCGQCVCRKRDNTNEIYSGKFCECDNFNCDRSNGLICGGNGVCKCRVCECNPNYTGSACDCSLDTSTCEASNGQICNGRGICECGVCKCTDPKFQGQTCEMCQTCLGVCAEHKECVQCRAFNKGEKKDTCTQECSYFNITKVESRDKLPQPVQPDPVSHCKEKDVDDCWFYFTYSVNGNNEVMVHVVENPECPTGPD

What was measured:
[1] = molecular target: Integrin αvβ5 Receptor (Homo sapiens, UniProt P06756+P18084); assay: HTRF binding activity to integrin αvβ5 receptor (competition with Vitronectin); conditions: read-out: IC50 (nM) αvβ5, Table 4, different integrin receptors
[2] = molecular target: Integrin αvβ6 Receptor (Homo sapiens, UniProt P06756+P18564); assay: HTRF binding activity to integrin αvβ6 receptor (competition with LAP (TGF-beta 1))
[3] = molecular target: Integrin αvβ1 Receptor (Homo sapiens, UniProt P05556+P06756); assay: Fluorescence polarization (FP) binding activity to integrin αvβ1 receptor (competition with Cyclo[-RGDy-K(5-FAM)]); conditions: read-out: IC50 (nM) αvβ1, Table 4, different integrin receptors

`Cc1cc(C)n(-c2cccc(C(CC(=O)O)CN3CC[C@@H](CCc4nc5c(cc4CNC(=O)CCOCCOCCOCCOCCN=[N+]=[N-])CCCN5)C3)c2)n1` (single isomer, unassigned) was tested, and the IC50 [1] was 0.8 nM, the IC50 ([2]; Integrin αvβ6, HTRF, Table 3, several runs, each with Cilengitide and 1 as references) was 4.5 nM and the IC50 ([2]; read-out: IC50 (nM) αvβ6, Table 4, different integrin receptors) was 3.6 nM. For the same compound, the IC50 [3] was 5.3 nM.

Read-outs that look alike come from different tables or passages of the source.
